# Antibody variant affinities, Ab-14 light chain, assay 1

Source: Engelhart et al. 2022 (doi:10.1038/s41597-022-01779-4), MIT Lincoln Laboratory and A-Alpha Bio; data file from the FLAb repository.

Binding partner: SARS-CoV-2 spike HR2 peptide, sequence PDVDLGDISGINAS.

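The starting antibody came from a phage panning campaign against this peptide. Variants in AAYL50 differ from the parent at up to three CDR positions; double and triple changes were sampled at random. Affinity was read by AlphaSeq, a pooled yeast mating assay with surface-displayed partners. The frequency of each diploid, read from paired DNA barcodes, reflects how well the two displayed proteins bind. Each replicate has its own calibration line, from reference interactions of the BCL2 family. There are three technical replicates.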

The variants keep the heavy chain, the linker and the frameworks of Ab-14 (scFv order VH, the linker GGGGSGGGGSGGGGS, VL).
VH: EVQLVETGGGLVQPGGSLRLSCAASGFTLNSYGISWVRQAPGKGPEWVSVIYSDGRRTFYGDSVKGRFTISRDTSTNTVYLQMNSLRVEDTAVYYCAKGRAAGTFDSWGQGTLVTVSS
VL: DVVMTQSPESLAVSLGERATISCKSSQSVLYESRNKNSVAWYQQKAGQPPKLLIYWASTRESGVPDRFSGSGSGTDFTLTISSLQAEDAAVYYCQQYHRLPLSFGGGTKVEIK

Positions count from residue 1 of the parent VL; K24Q puts Q in place of K. All variants listed here change R34 of the VL, counted from its first residue. The Kd shown is the geometric mean over detected replicates; a lower Kd is a better binder. A pair that was not seen in any replicate is written "nd"; this usually means weak binding, but a binder can also be missed. For reference, the parent read 4.4 nM as the reference entry and 48 nM as a member of this library.

For K24Q/R34Q/W56V, the assay gave 1.9 µM (1 of 3 replicates; controls 0 of 9). The variant R34F/N35T/K36Q gave 67 nM (3 of 3 replicates; controls 3 of 9). The variant Q27G/R34P gave 9.9 nM (3 of 3 replicates; controls 1 of 9). With Y31I/R34K/A40C the result was 2.0 µM (3 of 3 replicates; controls 3 of 9). The variant R34E showed 2.2 nM (3 of 3 replicates; controls 4 of 9). The variant S33P/R34E gave 11 nM (3 of 3 replicates; controls 2 of 9). For S25P/R34F/S38C, the assay gave 3.6 µM (3 of 3 replicates; controls 1 of 9). The variant R34H/N37G/R60M showed nd (0 of 3 replicates; controls 2 of 9). The variant S25L/Q27N/R34C gave 13 nM (3 of 3 replicates; controls 4 of 9).

With R34W/A57W/S58A the result was 81 µM (2 of 3 replicates; controls 4 of 9). For S33K/R34I/Q95Y, the assay gave nd (0 of 3 replicates; controls 0 of 9). The variant R34Y/S58D/L102Y showed nd (0 of 3 replicates; controls 1 of 9). For Q27P/R34V/Y97F, the assay gave 2.0 µM (2 of 3 replicates; controls 1 of 9). The variant R34P/N35L/Y97V showed 53 nM (3 of 3 replicates; controls 2 of 9). The variant R34D/N35I gave 36 nM (3 of 3 replicates; controls 0 of 9). The variant R34W/K36W/A57V showed 4.9 µM (1 of 3 replicates; controls 2 of 9). The variant V29G/R34A/R99Y showed 51 nM (3 of 3 replicates; controls 0 of 9). The variant R34Y/V39Y/A57T showed nd (0 of 3 replicates; controls 0 of 9).

The variant Q27K/R34K/Q96K gave 4.4 µM (1 of 3 replicates; controls 0 of 9). The variant S28R/R34I/S103N gave 660 nM (3 of 3 replicates; controls 1 of 9). The variant S28K/R34Q/R60G gave 80 µM (2 of 3 replicates; controls 0 of 9). The variant R34M/V39T/A57L showed 6.5 µM (3 of 3 replicates; controls 4 of 9). The variant R34N/R60N/H98A showed 1.8 µM (3 of 3 replicates; controls 3 of 9). With K24C/R34Y/K36C the result was 2.1 µM (2 of 3 replicates; controls 3 of 9). For V29R/R34F/E61P, the assay gave 150 nM (3 of 3 replicates; controls 0 of 9). With Y31A/R34T/Q96A the result was 1.7 nM (3 of 3 replicates; controls 1 of 9). The variant R34H/V39L showed 14 µM (1 of 3 replicates; controls 1 of 9).

The variant R34S/A40W/Q95C showed 140 µM (1 of 3 replicates; controls 0 of 9). The variant S33G/R34D/R60W showed 100 µM (2 of 3 replicates; controls 3 of 9). For R34C/S58D/S62P, the assay gave 11 nM (3 of 3 replicates; controls 2 of 9). The variant R34T/N37P/T59K gave 8.9 nM (3 of 3 replicates; controls 2 of 9). For S33E/R34M/N35M, the assay gave 8.1 nM (3 of 3 replicates; controls 0 of 9). With L30N/R34V/H98T the result was 18 nM (3 of 3 replicates; controls 0 of 9). With R34E/Q96Y/L102R the result was nd (0 of 3 replicates; controls 0 of 9). The variant E32H/R34N/S103R showed 28 nM (3 of 3 replicates; controls 0 of 9). The variant R34I/W56P/L102N showed nd (0 of 3 replicates; controls 0 of 9).

The variant R34H/W56T/A57H showed 360 nM (1 of 3 replicates; controls 1 of 9).

Three control strains display no target. For library AAYL50, 18% of the pairings with them gave a signal, with a median of 15 µM and one signal in twenty below 970 nM, so weak values seen in few replicates may be background. The control count says in how many pairings with the empty strains this scFv gave a signal.